Test results taken from article PMC7559746 (Pharmaceutics, 2020).

Details: sorafenib monotherapy

Q: With `CNC(=O)c1cc(Oc2ccc(NC(=O)Nc3ccc(Cl)c(C(F)(F)F)c3)cc2)cc[n+]1[O-]` [Sorafenib-N-oxide, sorafenib-N-oxide] as the compound, how does the “Metabolic ratio (metabolite/sorafenib), AUC0–12 h” value read?
A: The value was 0.10.
